Test results taken from patent US9504672B2, “Compositions and methods for treating or preventing pneumovirus infection and associated diseases” (MicroDose Therapeutx, Inc., priority 2012, dated 2016).

Details: open wide glass bottles, 40° C./75% RH, 4 weeks

Cc1nnnn1/N=C/c1ccc(O)c(C(c2ccc(O)cc2)c2cc(/C=N/n3nnnc3C)ccc2O)c1 [P-3 dihydrate, phenol, 2,2′-[(4-hydroxyphenyl)methylene]bis[4-[[(5-methyl-1H-tetrazol-1-yl)imino]methyl]]]
change of form / solid-state stability (DSC and PXRD): stable against solid-state changes and chemical degradation
